Laboratory results reported in patent US20260232827A1, “ANTIBODY-DRUG CONJUGATES TARGETING NAPI2B AND METHODS OF USE” (Zymeworks BC Inc., priority 2023, published 2026).

The chains behind the UniProt entries cited, without tags or fusion partners. Residues count along the entry.
UniProt P01308, 25-54 limits assumed, chain 1 of 2: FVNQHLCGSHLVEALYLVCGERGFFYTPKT
UniProt P01308, 90-110 limits assumed, chain 2 of 2: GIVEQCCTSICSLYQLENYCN

Target: Insulin (Sigma-Aldrich, 19278) (Homo sapiens (Human)) (UniProt P01308)
Assay: non-specific ELISA, insulin coated, antibody 100 nM

NS-ELISA binding score (signal over buffer well): 1.03
B1: v29452 (H1L3) (antibody, human IgG1, kappa, V domains shown)
VH: QVQLVQSGAEVKKPGASVKVSCKASGFTFTSYNVHWVRQAPGQGLEWMGAISPGNGDLSYAQKFQGRVTMTRDTSTSTVYMELSSLRSEDTAVYYCARGRTGMGAVDYWGQGTLVTVSS
VL: DVQMTQSPSSLSASVGDRVTITCRASQDVYSYLNWYQQKPGKAVKLLIYYTSRLQSGVPSRFSGSGSGTDYTLTISSLQPEDIATYYCQQYNIFPWTFGQGTKLEIKR
